Source: BindingDB's records for doi:10.1021/jm0105833 (Harvard University, 2002)

Target: Purine nucleoside phosphorylase (Homo sapiens) (UniProt P00491)
Assay: Binding affinity against Purine Nucleoside Phosphorylase

SMILES: O=P(O)(O)OC[C@H]1O[C@@H](n2cnc3cncnc32)[C@H](O)[C@@H]1O
- Kd: 1.1 nM
